Test results taken from patent publication US7247440B2, “Method of screening preventives or remedies for obesity” (Takeda Pharmaceutical Company Limited, priority 2001, dated 2007).

Columns and labels:
GPR7 [1] = target: T1, GPR7 (Homo sapiens, UniProt P48145); test: Receptor binding test using [125I-Tyr10]-hGPR8L (1-23) and human GPR7-expressed CHO cell membrane fraction; set-up: expressed in transfected cells; host or cells: membrane fraction of CHO dhfr- cells transfected with pAKKO-Human GPR7; conditions: for binding inhibition of [125I-Tyr10]-hGPR8L (1-23) / affinity (in words): human GPR7-expressed CHO cell membrane fraction
T1 sequence (P48145 1-328): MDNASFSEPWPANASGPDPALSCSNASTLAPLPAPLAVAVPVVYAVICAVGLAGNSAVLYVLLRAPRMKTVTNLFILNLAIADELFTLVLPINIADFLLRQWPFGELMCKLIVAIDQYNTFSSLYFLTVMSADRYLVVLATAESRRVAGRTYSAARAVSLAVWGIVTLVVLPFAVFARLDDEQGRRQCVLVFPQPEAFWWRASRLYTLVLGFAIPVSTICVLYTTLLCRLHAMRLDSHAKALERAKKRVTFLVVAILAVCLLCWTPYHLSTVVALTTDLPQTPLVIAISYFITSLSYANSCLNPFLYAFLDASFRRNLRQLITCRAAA
Procedure: Receptor binding test was carried out using [^125I-Tyr^10]-hGPR8L (1-23) prepared as described in REFERENCE EXAMPLE 42 and the cell membrane fraction prepared from the human GPR7-expressed CHO cells.
To 1×10^8 of the human GPR7-expressed CHO cells was added 10 ml of a homogenate buffer (10 mM NaHCO3, 5 mM EDTA (ethylenediaminetetraacetic acid), 0.5 mM PMSF (phenylmethanesulfonyl fluoride), 1 μg/ml pepstatin, 4 μg/ml E64 and 20 μg/ml leupeptin). The mixture was homogenized by using Polytron (12,000 rpm, 1 min.). The cell homogenate was centrifuged (1,000 g, 15 mins.) to obtain the supernatant. Next, the supernatant was subjected to ultracentrifugation (Beckman type 30 rotor, 30,000 rpm, 1 hour). The resulting precipitate was used as a human GPR7-expressed CHO cell membrane fraction.
The thus prepared cell membrane fraction was diluted in various concentrations with an assay buffer (25 mM Tris-HCl, 5 mM EDTA, 0.05% CHAPS (3-[(3-choramidopropyl)dimethylammonio]-1-propanesulfonate), 0.1% BSA, 0.5 mM PMSF, 1 μg/ml pepstatin, 20 μg/ml leupeptin and 4 μg/ml E-64, pH 7.4). Then, a 200 μl aliquot of the dilution was dispensed into a propylene-made testing tube (Falcon 2053). In order to assay for the total binding, 2 μl of DMSO and 2 μl of 8 nM [^125I-Tyr^10]-hGPR8L (1-23) was added to the membrane fraction solution. Also, the non-specific binding was assayed by adding 2 μl of a DMSO solution of 1 mM hGPR8L (1-23) and 2 μl of 8 nM [^125I-Tyr^10]-hGPR8L (1-23) to the membrane fraction solution. After reacting at 25° C. for 75 minutes, the reaction solution was suction-filtrated through a polyethyleneimine-treated Whatman glass filter (GF-F), and the filter was washed twice with ˜1.5 ml of a wash buffer (25 mM Tris-HCl, 5 mM EDTA, 0.05% CHAPS, 0.1% BSA, pH 7.4). After the filtration, the residual radioactivity remained on the filter paper was measured with a γ-counter, and the specific binding was estimated by subtracting the non-specific binding from the total binding. […]

GPR7 [2] = target: T1, GPR7; test: GTPγS-binding promoting activity on GPR7-expressed CHO cell membrane fraction; type: biochemical; set-up: expressed in transfected cells; host or cells: CHO dhfr- cells, plasmid pAKKO-Human GPR7 (high-expression clones 7, 8, 14)
Procedure: The [^35S]-guanosine 5′-(γ-thio)triphosphate (GTPγS) binding promoting activity on the GPR7-expressed CHO cell membrane fraction was assayed by the following procedures.
The GPR7-expressed CHO cell membrane fraction prepared by the method described in EXAMPLE 2 was diluted with a membrane dilution buffer (50 mM Tris-hydrochloride buffer (pH 7.4), 5 mM MgCl2, 150 mM NaCl, 1 μM GDP and 0.1% BSA) to prepare a cell membrane fraction solution for assay having a protein level of 30 μg/ml. To 200 μl of the cell membrane fraction solution for assay were added 2 μl of 50 nM [^35S]-guanosine 5′-(γ-thio)triphosphate (NEN Co.) and 2 μl of a sample solution in DMSO, which was adjusted to an appropriate concentration. The resulting mixture was kept warm at 25° C. for an hour. The mixture was filtrated through a filter. After the filter was washed twice with 1.5 ml of a wash buffer (50 mM Tris-hydrochloride buffer (pH 7.4), 5 mM MgCl2, 1 mM EDTA and 0.1% BSA), radioactivity of the filter was measured with a liquid scintillation counter.
Following the procedures described in 1) above, hGPR8L (1-23) or hGPR8L (1-30) were given to the GPR7-expressed CHO cell membrane fraction in various concentrations to assay for the GTPγS-binding promoting activity. […]

With `CSCC[C@H](NC(=O)[C@H](CC(C)C)NC(=O)[C@H](CC(C)C)NC(=O)CNC(=O)[C@H](C)NC(=O)[C@H](C)NC(=O)[C@H](CCCNC(=N)N)NC(=O)CNC(=O)[C@@H](NC(=O)[C@@H](NC(=O)[C@H](Cc1c[nH]cn1)NC(=O)[C@H](Cc1ccc(O)cc1)NC(=O)[C@H](CCCNC(=N)N)NC(=O)[C@@H]1CCCN1C(=O)[C@H](CO)NC(=O)[C@H](C)NC(=O)[C@@H](NC(=O)[C@H](Cc1c[nH]cn1)NC(=O)[C@H](CCCCN)NC(=O)[C@H](Cc1ccc(O)cc1)NC(=O)[C@@H](N)Cc1c[nH]c2ccccc12)C(C)C)[C@@H](C)O)C(C)C)C(=O)NCC(=O)N[C@@H](CC(C)C)C(=O)N[C@@H](CCCNC(=N)N)C(=O)N[C@@H](CCCNC(=N)N)C(=O)N[C@@H](CO)C(=O)N1CCC[C@H]1C(=O)N[C@@H](Cc1ccc(O)cc1)C(=O)N[C@@H](CC(C)C)C(=O)N[C@@H](Cc1c[nH]c2ccccc12)C(=O)O` [hGPR8L(1–30)] the “binding inhibition of [125I-Tyr10]-hGPR8L (1-23) / affinity (in words)” value (GPR7 [1]) was “high affinity”, the IC50 (GPR7 [1]; inhibition of [125I-Tyr10]-hGPR8L (1-23) binding, GPR7-expressed CHO cell membrane fraction) was 0.025 nM and the EC50 (GPR7 [2]) was 0.67 nM.
In the case of `CSCC[C@H](NC(=O)[C@H](CC(C)C)NC(=O)[C@H](CC(C)C)NC(=O)CNC(=O)[C@H](C)NC(=O)[C@H](C)NC(=O)[C@H](CCCNC(=N)N)NC(=O)CNC(=O)[C@@H](NC(=O)[C@@H](NC(=O)[C@H](Cc1c[nH]cn1)NC(=O)[C@H](Cc1ccc(O)cc1)NC(=O)[C@H](CCCNC(=N)N)NC(=O)[C@@H]1CCCN1C(=O)[C@H](CO)NC(=O)[C@H](C)NC(=O)[C@@H](NC(=O)[C@H](Cc1c[nH]cn1)NC(=O)[C@H](CCCCN)NC(=O)[C@H](Cc1ccc(O)cc1)NC(=O)[C@@H](N)Cc1c[nH]c2ccccc12)C(C)C)[C@@H](C)O)C(C)C)C(=O)NCC(=O)N[C@@H](CC(C)C)C(=O)O` [hGPR8L(1–23)], the “binding inhibition of [125I-Tyr10]-hGPR8L (1-23) / affinity (in words)” value (GPR7 [1]) is reported as “high affinity” and the EC50 (GPR7 [2]) is reported as 0.74 nM.
